Measured values as given in ChEMBL document CHEMBL1139435, “Beta-oxygenated analogues of the 5-HT2A serotonin receptor agonist 1-(4-bromo-2,5-dimethoxyphenyl)-2-aminopropane” (J Med Chem, 2004).

Chains of the proteins cited; added tags and fusions are not shown.
UniProt P14842, whole entry: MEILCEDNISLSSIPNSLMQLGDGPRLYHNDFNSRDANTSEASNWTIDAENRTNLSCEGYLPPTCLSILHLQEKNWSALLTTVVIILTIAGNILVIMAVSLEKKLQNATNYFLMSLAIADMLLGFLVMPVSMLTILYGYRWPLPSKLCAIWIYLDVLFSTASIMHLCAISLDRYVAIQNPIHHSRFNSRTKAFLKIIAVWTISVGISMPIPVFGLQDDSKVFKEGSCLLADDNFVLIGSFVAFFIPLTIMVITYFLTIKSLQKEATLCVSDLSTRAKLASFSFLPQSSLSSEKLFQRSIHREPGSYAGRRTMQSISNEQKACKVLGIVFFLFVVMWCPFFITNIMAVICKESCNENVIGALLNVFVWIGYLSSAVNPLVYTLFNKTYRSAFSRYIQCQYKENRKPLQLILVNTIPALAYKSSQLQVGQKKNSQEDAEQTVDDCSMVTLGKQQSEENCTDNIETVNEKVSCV

How the values were obtained:
[1] = target: 5-hydroxytryptamine receptor 2A (Rattus norvegicus) (UniProt P14842); assay: Efficacy as 5-HT2A receptor-mediated intracellular calcium [Ca2+] mobilization in rat A7r5 cells; format: functional, cell-based
Outline: (§1)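 Rat A7r5 vascular smooth muscle cells grown in DMEM/10% FBS, seeded at 20 000 cells/well, cultured 2 days. Loaded with calcium dye in HBSS/20 mM HEPES/2.5 mM probenecid pH 7.4 for 1 h at 23 °C. Response is peak minus basal fluorescence, expressed as % of maximal 5-HT response.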

[2] = target: T1, 5-hydroxytryptamine receptor 2A (Rattus norvegicus, UniProt P14842); assay: Serotonin 5-HT2A receptor-mediated intracellular calcium [Ca2+] mobilization in rat A7r5 cells; format: functional, cell-based; outline: as §1
[3] = target: T1, 5-hydroxytryptamine receptor 2A; assay: Binding affinity for 5-HT2A serotonin receptor
Outline: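 Incubated 1 h at 23 °C. Nonspecific binding defined with methiothepin (10 µM final). Ended by vacuum filtration over GF/B filters presoaked in 0.3% polyethyleneimine, washed with ice-cold buffer. Bound counts read by scintillation. IC50 for displacing labelled DOI binding.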

| SMILES | Efficacy [1] | EC50 [2] | Ki [3] |
| --- | --- | --- | --- |
| COc1cc(C[C@@H](C)N)c(OC)cc1Br | 51% | 20 nM | 0.2 nM |
| COc1cc(CC(C)N)c(OC)cc1Br (stereo not given) [BROLAMFETAMINE] |  | 60 nM | 0.1 nM |
